Biological target: Cyclin-dependent kinase 2/cyclin A (Homo sapiens, UniProt P24941)
Assay: Inhibition of cyclin-dependent kinase 2-cyclin A3 (CDK2)
Assay type: protein-complex assay

Q: How did the IC50 turn out when `Clc1cccc(Nc2nc(OCC3CCCCC3)c3[nH]cnc3n2)c1` was run?
A: 2300 nM

From ChEMBL document CHEMBL1138832, “N2-substituted O6-cyclohexylmethylguanine derivatives: potent inhibitors of cyclin-dependent kinases 1 and 2” (J Med Chem, 2004)
